From the supplement of paper PMC8183993
The lowest values were mostly taken out for another list; the other results follow.

These molecules were tested on U2OS (assay: mean cytoplasmic OPP incorporation (global translation) relative to DMSO (% of DMSO); higher = more protein synthesis). Conditions: 10 µM; 24 h.
Description: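 Primary image-based screen in U2OS cells: compounds at 10 uM for 24 h, then a 1 h o-propargyl-puromycin (OPP) pulse, click labelling, and high-throughput microscopy. Mean cytoplasmic OPP intensity and nuclei count were normalised to DMSO wells within each plate (DMSO = 100) and averaged over triplicate plates.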
With COc1cc(Br)c(C[N+]2(CCOCCC3CCC4CC3C4(C)C)CCOCC2)cc1OC (stereo unspecified) [Pinaverium bromide] the “mean cytoplasmic OPP incorporation” value was 109.
